Results reported in patent publication US20240358672A1, “APPLICATION OF GENISTEIN AND ITS PHOSPHATE ESTER DERIVATIVE AND PHARMACEUTICAL COMPOSITION COMPRISING THE SAME” (National Taiwan University, priority 2023, published 2024).

What was measured:
hiPSC-ECs [1] = test: qPCR gene expression in hiPSC-ECs; assay type: cell-based, human; settings: 10 μM genistein with 5 μM Δ^9-THC, 48 hours
hiPSC-ECs [2] = test: Western blot / immunofluorescence of p38 and NF-κB (p65) in hiPSC-ECs; settings: 1 μM BAY11-7082 with 5 μM Δ^9-THC, 48 hours

Q: O=c1c(-c2ccc(O)cc2)coc2cc(O)cc(O)c12 [genistein] was tested. Which “expression profile of antioxidant genes suppressed by Δ^9-THC” value (hiPSC-ECs [1]) did it give?
A: The value was “ameliorated”.

Q: Cc1ccc(S(=O)(=O)/C=C/C#N)cc1 [BAY11-7082] was tested. Which “Δ^9-THC-mediated phosphorylation of NF-κB” value (hiPSC-ECs [2]) did it give?
A: The value was “abrogated”.
